Measurements taken from patent US5731348A, “Alkylcarboxy amino acids-modulators of the kainate receptor” (Bearsden Bio, Inc., priority 1996, dated 1998).
“Also recorded” adds a separate entry of the source.

Tests used:
rat GluR6 KA receptors = conditions: 10 nM to 20 μM; 300 mM KA (so in the source); rat GluR6 in HEK 293
Description: (§1) Tissue slice or whole cell electrophysiology as described by Yamada (Neurophysiology, 1994 and references therein) is used to measure agonist, partial agonist, or antagonist properties of drugs for glutamate receptors. […] This is distinct from the binding affinity.

[1] = test system: rat GluR4 (AMPA) receptors; conditions: up to 200 μM; 300 μM AMPA; rat GluR4 in HEK 293
Description: as §1

C[C@H](C[C@H](N)C(=O)O)C(=O)O [compound 8, (2S,4R)-4-Methyl Glutamic Acid]
block of KA evoked current (rat GluR6 KA receptors): completely and reversibly blocked | effect on AMPA evoked currents [1]: no effect on currents evoked by 300 μM AMPA; also recorded: did not inhibit 300 μM AMPA currents
